# Experimental data reported in PubChem BioAssay (NCI).
# Only a part is listed here, and it is no random draw. A structure can be active in one record and inactive in another. Calls of active or inactive are those of the source. Rule as the data show it: active = growth inhibition above about 70%; inactive = the rest.
# Assay: NCI Yeast Anticancer Drug Screen. Data for the CLN2oe strain (AID 163);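 also: 0% = growth of vehicle-only control cultures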
# Settings: S. cerevisiae CLN2oe strain, active compounds read high
# Method: Growth inhibition of yeast strains with defined genetic alterations is measured as a screen for potential anti-cancer activity. Selected strains with alterations in DNA damage repair or cell cycle control were exposed to compounds and growth inhibition was measured relative to vehicle treated controls. The strain used in this assay is CLN2oe
SMILES,growth inhibition (at 1.2 µM),growth inhibition (at 3.7 µM),growth inhibition (at 11.0 µM),growth inhibition (at 33.0 µM),growth inhibition (at 100.0 µM)
O=C1OC(C(Cl)(Cl)Cl)Sc2ccccc21 (stereo not given),inactive: -4%,inactive: -3%,inactive: -12%,inactive: 2%,inactive: 21%
CC(C)c1nc(Nc2ccccc2)n(P(=O)(N(C)C)N(C)C)n1,inactive: 8%,inactive: 0%,inactive: 14%,inactive: 61%,active: 95%
O=[N+]([O-])c1cc([N+](=O)[O-])c2nsnc2c1,inactive: -12%,inactive: 11%,active: 99%,active: 99%,active: 99%
N#Cc1cc([N+](=O)[O-])cc([N+](=O)[O-])c1N,inactive: -13%,inactive: -10%,inactive: -2%,inactive: 14%,inactive: 29%
NC(Cc1cnc[nH]1)C(=O)O (stereo not given),inactive: 3%,inactive: 9%,active: 96%,active: 98%,active: 99%
FC1(F)SC2C(C1(F)F)C1(Cl)C(Cl)=C(Cl)C2(Cl)C1(Cl)Cl (stereo not given),inactive: 5%,inactive: 43%,active: 98%,active: 99%,active: 98%
COc1cccc(C[N+](C)(CCCl)CCCl)c1[N+](=O)[O-],inactive: 18%,inactive: 7%,inactive: 0%,inactive: 6%,inactive: 20%
CN(C)P(=O)(N(C)C)n1c(Nc2ccccc2)nnc1-c1ccccc1,inactive: -19%,inactive: -12%,inactive: 36%,active: 97%,inactive: 29%
